From article PMC11971191, “Seeding-competent early tau multimers are associated with cell type-specific transcriptional signatures” (Acta Neuropathologica, 2025) come the findings set out here.

This data set deals with the molecule itself. The experiment in a line: RT-QuIC (thioflavin T fluorescence, seeded aggregation); 0.1 mg/mL filtered soluble τ306 seeded with pre-formed τ306 aggregates; 10 mM HEPES pH 7.4, 400 mM NaCl, 40 µM heparin, 10 µM ThT, 42 °C, intermittent shaking; with or without tau KO mouse brain homogenate and N-2 supplement.

B1: recombinant τ306 fragment (domain or fragment, human, UniProt P10636-8 306-378, looked up)
chain: VQIVYKPVDLSKVTSKSGSLGNIHHKPGGGQVEVKSEKLDFKDRVQSKIGSLDNITHVPGGGNKKIETHKLTF
notes: numbers count on: htau40; Cloned into pET-28a immediately after the N-terminal poly-histidine tag and thrombin site; no cleavage of the tag is described; Aggregates were made by shaking 1 mg/mL τ306 with 40 µM heparin at 37 °C for 360 h; also called τ306 tau fragment; τ306 substrate; source: E. coli BL21(DE3), purified (His-Trap nickel column, acetone precipitation, PD-10 desalting)
Regarding B1, the binding result is listed as “binds”.
